Measurements from patent publication US20090098115A1, “Cell lines and animal models of HER2 expressing tumors” (priority 2006, published 2009).

What was measured:
[1] = test system: BT-474JB xenograft tumors; assay: BT-474JB xenograft tumor response to naked trastuzumab; format: in vivo, mice; conditions: BT-474JB xenografts with exogenous estrogen pellets, different dose levels (FIG. 3)
Source text: The BT-474JB cells were obtained from Jose Baselga (Vall d'Hebron University Hospital, Barcelona, Spain.). The JB cells were derived by obtaining a BT-474 xenograft tumor and re-establishing the cells in culture. […] A fast-growing tumor was obtained to put back into culture. These cells can then be grown up for further xenograft studies.
BT-474JB cells form xenograft tumors in the presence of exogenous estrogen pellets.

[2] = test system: BT-474EEI cells; assay: In vitro cell proliferation assay (Cell Titer-Glo), BT-474EEI; format: cell-based, human; conditions: 0.0001 ug/ml to 10 ug/ml, 72 h (FIGS. 7B, 8B)
Procedure: (§1) BT-474 and BT-474EE1 cells were plated in 96-well microtiter plates and incubated overnight at 37° in a humidified atmosphere of 5% CO2. Cells were treated with a range of concentrations of trastuzumab, trastuzumab-MCC-DM1, or Tarceva from 0.0001 ug/ml to 10 ug/ml. After incubation for 72 h, Cell Titer-Glo reagent (Promega, Madison, Wis.) was added to the wells, and after a 10-min incubation at room temperature, the luminescent signal was recorded.

[3] = test system: BT-474EEI xenograft tumors; assay: BT-474EEI xenograft trastuzumab efficacy study; format: in vivo, beige nude mice; conditions: BT-474EEI in mammary fat pad, no estrogen; trastuzumab 10 mg/kg IV once a week for 4 weeks; conjugate on days 0, 7, 26 and 49 (FIG. 4)
Procedure: Cells were grown in DMEM: Ham's F-12 medium containing 10% FBS and 2 mM 1-glutamine. They were detached from the flasks with 5 mM EDTA in 150 mM NaCl, washed and resuspended in culture medium. The cell suspension is mixed 50:50 with cold phenol red-free matrigel (Becton Dickinson) for a final cell number of 10^8 per ml. Mice were injected with 0.2 ml for 20 million cells per mouse inoculum.
Female Beige nude mice (Harlan Sprague Dawley, Madison, Wis.) 6-8 weeks of age were injected with 2×10^7 BT-474EEI cells into the mammary fat pad in a volume of 0.2 ml. Tumors were allowed to grow and were then measured in two dimensions using a caliper. Tumor volume was expressed in mm^3 using the formula: V=(a×b^2)×0.5, where a and b are the long and the short diameters of the tumor, respectively. Tumors were measured and mice were grouped into groups of 9 mice with a mean tumor volume between 100-200 mm 3. Trastuzumab at 10 mg/kg and a Vehicle Control were injected IV once a week for 4 weeks (Day 0, 7, 14, 24). Trastuzumab-MC-vc-PAB-MMAF antibody drug conjugate was injected on days 0, 7, 26 and 49. In the trastuzumab-MC-vc-PAB-MMA Fantibody conjugate, MC-vc-PAB is a linker, which stands for Maleiamide Caproyl, val-cit, paraminobenzoic acid (the PAB self immolates and is released). […] Tumors were measured twice a week throughout the experiment. […]

[4] = test system: HER2-overexpressing metastatic breast cancers; conditions: patients with extensive prior anti-cancer therapy; cited from earlier work
[5] = test system: BT-474 cells; assay: In vitro cell proliferation assay (Cell Titer-Glo), BT-474; format: cell-based, human; conditions: BT-474, 0.0001 ug/ml to 10 ug/ml, 72 h (FIGS. 7A, 8A)
Procedure: as §1

trastuzumab: recombinant humanized version of the murine HER2 antibody 4D5
response of xenograft tumors to treatment [1]: extremely sensitive
cell proliferation [2]: little change
growth of xenograft tumors / sensitivity to treatment [3]: substantially less sensitive; also recorded: does not show activity
clinical activity [4]: clinically active
cell proliferation [5]: substantially reduced in a dose-dependent manner

Trastuzumab-MCC-DM1
cell proliferation [2]: substantially decreased in a dose-dependent manner
cell proliferation [5]: substantially reduced in a dose-dependent manner

trastuzumab-MC-vc-PAB-MMAF
growth of xenograft tumors / sensitivity to treatment [3]: significantly inhibited; also recorded: significant anti-tumor inhibition

Entries after “also recorded” stand apart in the source; their conditions may differ.
